Source: ChEMBL document CHEMBL5715957, “D4 dopamine receptor high-resolution structures enable the discovery of selective agonists” (2017)

Chains of the proteins cited; added tags and fusions are not shown.
UniProt P21917, whole entry, looked up: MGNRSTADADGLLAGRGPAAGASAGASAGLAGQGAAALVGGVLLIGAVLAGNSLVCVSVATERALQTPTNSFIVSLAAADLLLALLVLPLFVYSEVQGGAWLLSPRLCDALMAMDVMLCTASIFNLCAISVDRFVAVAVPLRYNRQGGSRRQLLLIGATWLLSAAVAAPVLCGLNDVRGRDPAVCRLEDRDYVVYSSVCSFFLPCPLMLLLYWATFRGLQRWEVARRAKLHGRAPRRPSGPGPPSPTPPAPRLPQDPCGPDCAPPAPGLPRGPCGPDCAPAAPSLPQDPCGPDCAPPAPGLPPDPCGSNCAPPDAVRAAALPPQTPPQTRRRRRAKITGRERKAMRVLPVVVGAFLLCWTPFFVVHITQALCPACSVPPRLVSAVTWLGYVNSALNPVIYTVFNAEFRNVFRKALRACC
UniProt P14416, whole entry, looked up: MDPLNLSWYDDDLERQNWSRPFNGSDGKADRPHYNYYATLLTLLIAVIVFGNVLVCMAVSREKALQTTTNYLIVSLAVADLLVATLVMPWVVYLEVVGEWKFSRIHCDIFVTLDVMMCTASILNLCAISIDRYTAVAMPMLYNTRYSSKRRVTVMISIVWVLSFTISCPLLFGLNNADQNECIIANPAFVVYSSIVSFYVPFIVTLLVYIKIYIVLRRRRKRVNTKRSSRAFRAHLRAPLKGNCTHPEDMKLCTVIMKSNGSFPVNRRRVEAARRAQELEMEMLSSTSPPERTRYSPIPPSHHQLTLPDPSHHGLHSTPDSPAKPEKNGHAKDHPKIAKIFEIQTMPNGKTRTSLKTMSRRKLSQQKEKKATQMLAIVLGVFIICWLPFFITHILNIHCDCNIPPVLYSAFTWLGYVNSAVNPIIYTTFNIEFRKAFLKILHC
UniProt P35462, whole entry, looked up: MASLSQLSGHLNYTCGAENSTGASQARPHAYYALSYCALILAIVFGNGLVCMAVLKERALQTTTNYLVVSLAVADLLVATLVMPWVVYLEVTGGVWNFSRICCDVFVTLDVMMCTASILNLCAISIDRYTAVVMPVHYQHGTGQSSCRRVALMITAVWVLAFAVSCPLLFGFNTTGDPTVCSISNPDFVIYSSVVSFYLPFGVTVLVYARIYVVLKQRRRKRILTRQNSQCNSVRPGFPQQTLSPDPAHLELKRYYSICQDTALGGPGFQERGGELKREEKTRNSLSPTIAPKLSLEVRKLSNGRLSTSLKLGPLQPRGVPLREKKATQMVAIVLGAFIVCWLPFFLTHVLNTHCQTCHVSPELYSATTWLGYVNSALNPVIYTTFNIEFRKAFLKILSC

How the values were obtained:
D(4) dopamine receptor [1] = molecular target: T1, D(4) dopamine receptor (Homo sapiens, UniProt P21917); experiment: Displacement of 3H-N-Methylspiperone from DRD4 in human HEK293T cells membrane assessed as inhibition constant incubated for 2 hrs by radioligand competition assay
D(2) dopamine receptor = D(2) dopamine receptor (Homo sapiens, UniProt P14416); experiment: Displacement of 3H-N-Methylspiperone from DRD2 in human HEK293T cells membrane assessed as inhibition constant incubated for 2 hrs by radioligand competition assay
D(3) dopamine receptor = D(3) dopamine receptor (Homo sapiens, UniProt P35462); experiment: Displacement of 3H-N-Methylspiperone from DRD3 in human HEK293T cells membrane assessed as inhibition constant incubated for 2 hrs by radioligand competition assay
[2] = Bios factor, ratio of agonist activity at DRD4-mediated arrestin signaling to agonist activity at DRD4-mediated G protein signaling in human HEK293T cells relative to quinpirole; conditions: condition cognitive impairment; condition parkinson disease; condition schizophrenia
[3] = Displacement of 3H-N-Methylspiperone from DRD4 F2.61V / L3.28F mutant in human HEK293T cells membrane assessed as inhibition constant incubated for 2 hrs by radioligand competition assay
D(4) dopamine receptor [4] = molecular target: T1, D(4) dopamine receptor; experiment: Agonist activity at DRD4 expressed in human HEK293T cells assessed as cAMP accumulation incubated for 15 mins by split-luciferase-based biosensor analysis
[5] = Displacement of 3H-N-Methylspiperone from DRD4 F2.61V mutant in human HEK293T cells membrane assessed as inhibition constant incubated for 2 hrs by radioligand competition assay
[6] = Displacement of 3H-N-Methylspiperone from DRD4 L3.28F mutant in human HEK293T cells membrane assessed as inhibition constant incubated for 2 hrs by radioligand competition assay
[7] = Displacement of 3H-N-Methylspiperone from DRD2 V2.61F mutant in human HEK293T cells membrane assessed as inhibition constant incubated for 2 hrs by radioligand competition assay
[8] = Displacement of 3H-N-Methylspiperone from DRD2 V2.61F / F3.28L mutant in human HEK293T cells membrane assessed as inhibition constant incubated for 2 hrs by radioligand competition assay
[9] = Displacement of 3H-N-Methylspiperone from DRD2 F3.28L mutant in human HEK293T cells membrane assessed as inhibition constant incubated for 2 hrs by radioligand competition assay
[10] = Agonist activity at DRD3 Y3657.35V mutant expressed in human HEK293T cells assessed as Galphai/o constitutive activity at 1 uM incubated for 15 mins in presence of pertussis toxin and isoproterenol by split-luciferase-based cAMP biosensor analysis; conditions: condition cognitive impairment, condition parkinson disease, condition schizophrenia, 0.25 h

Cc1ccc2[nH]c(CNCC[C@@H]3CCCCO3)cc(=O)c2c1
Ki (D(4) dopamine receptor [1]): 380 nM | Ki (D(2) dopamine receptor): > 10 µM | Ki (D(3) dopamine receptor): > 10 µM

Cc1cccc(C(=O)NCN2CCN(c3ccccc3C#N)CC2)c1
Ki (D(2) dopamine receptor): 6.48 µM

Cc1ccc2nc(CNCCCN3CCCC3=O)cc(O)c2c1
Ki (D(4) dopamine receptor [1]): 100 nM | Ki (D(2) dopamine receptor): > 10 µM | Ki (D(3) dopamine receptor): > 10 µM

Cc1ccc2nc(CNCCCn3ccnc3)cc(O)c2c1
Ki (D(4) dopamine receptor [1]): 600 nM | Ki (D(2) dopamine receptor): > 10 µM | Ki (D(3) dopamine receptor): > 10 µM

COc1ccccc1N1CCN(CCN(C(=O)C2CCCCC2)c2ccccn2)CC1
Ratio [2]: 1.3

Cc1n[nH]c(SCCNCc2cc(=O)c3cc(F)ccc3[nH]2)n1
Ki (D(4) dopamine receptor [1]): > 10000 nM | Ki (D(2) dopamine receptor): > 10 µM | Ki (D(3) dopamine receptor): > 10 µM

O=c1cc(CNCCc2nc3c(s2)CCC3)[nH]c2ccc(F)cc12
Ki (D(4) dopamine receptor [1]): 1100 nM | Ki (D(2) dopamine receptor): > 10 µM | Ki (D(3) dopamine receptor): > 10 µM

Cc1ccc2[nH]c(CNCCC[C@H]3CCOC3)cc(=O)c2c1
Ki (D(4) dopamine receptor [1]): 80 nM | Ki [3]: > 10 µM | Ki (D(2) dopamine receptor): > 10 µM | Ki (D(3) dopamine receptor): > 10 µM | EC50 (D(4) dopamine receptor [4]): 68.3 nM | Ratio [2]: 7.8

CO[C@H](CNCc1cc(=O)c2cc(F)ccc2[nH]1)c1cccs1
Ki (D(4) dopamine receptor [1]): > 10000 nM | Ki (D(2) dopamine receptor): > 10 µM | Ki (D(3) dopamine receptor): > 10 µM

Cc1ccc2nc(CNCCCN3CCOCC3)cc(O)c2c1
Ki (D(4) dopamine receptor [1]): > 10000 nM | Ki (D(2) dopamine receptor): > 10 µM | Ki (D(3) dopamine receptor): > 10 µM

O=c1cc(CNC[C@@H](O)c2ccccn2)[nH]c2ccc(F)cc12
Ki (D(4) dopamine receptor [1]): > 10000 nM | Ki (D(2) dopamine receptor): > 10 µM | Ki (D(3) dopamine receptor): > 10 µM

O=c1cc(CNCCSc2cn[nH]n2)[nH]c2ccc(F)cc12
Ki (D(4) dopamine receptor [1]): > 10000 nM | Ki (D(2) dopamine receptor): > 10 µM | Ki (D(3) dopamine receptor): > 10 µM

O=c1cc(CNCCCn2ccnn2)[nH]c2ccc(F)cc12
Ki (D(4) dopamine receptor [1]): > 10000 nM | Ki (D(2) dopamine receptor): > 10 µM | Ki (D(3) dopamine receptor): > 10 µM

CC(C)c1csc(CCNCc2cc(=O)c3cc(C(N)=O)ccc3[nH]2)n1
Ki (D(4) dopamine receptor [1]): 2600 nM | Ki (D(2) dopamine receptor): > 10 µM | Ki (D(3) dopamine receptor): > 10 µM

Cc1ccsc1CN(C)Cc1cc(=O)n2ccccc2n1
Ki (D(4) dopamine receptor [1]): 3000 nM | Ki (D(2) dopamine receptor): > 10 µM | Ki (D(3) dopamine receptor): 3.59 µM

Cc1ccc2[nH]c(CNCCc3c(C)n[nH]c3C)cc(=O)c2c1
Ki (D(4) dopamine receptor [1]): > 10000 nM | Ki (D(2) dopamine receptor): > 10 µM | Ki (D(3) dopamine receptor): > 10 µM

CNc1cc(OC)c(C(=O)NC2CCN(Cc3ccccc3)C2C)cc1Cl (configuration not stated)
Ki [5]: 5.24 nM | pKi [5]: 8.35 | Ki [6]: 7.15 nM | pKi [6]: 8.15 | Ki [3]: 0.00627 µM | pKi [3]: 8.21 | Ki [7]: 0.29 nM | pKi [7]: 9.54 | Ki [8]: 0.38 nM | pKi [8]: 9.44

Cc1nc(CCNCc2cc(=O)c3cc(F)ccc3[nH]2)cc(=O)[nH]1
Ki (D(4) dopamine receptor [1]): > 10000 nM | Ki (D(2) dopamine receptor): > 10 µM | Ki (D(3) dopamine receptor): > 10 µM

Oc1cc(CNCCc2nccs2)nc2c(F)cccc12
Ki (D(4) dopamine receptor [1]): 6700 nM | Ki (D(2) dopamine receptor): > 10 µM | Ki (D(3) dopamine receptor): > 10 µM

CCCC[C@@H](NCc1cc(=O)c2cc(F)ccc2[nH]1)C(N)=O
Ki (D(4) dopamine receptor [1]): > 10000 nM | Ki (D(2) dopamine receptor): > 10 µM | Ki (D(3) dopamine receptor): > 10 µM

Cc1ccc2nc(CN[C@H](c3cccs3)C3CC3)cc(=O)n2c1
Ki (D(4) dopamine receptor [1]): 700 nM | Ki (D(2) dopamine receptor): > 10 µM | Ki (D(3) dopamine receptor): 4 µM

Cc1ncc(CN2CC=C(c3ccccc3)CC2)c(N)n1
Ki (D(4) dopamine receptor [1]): 43.7 nM | pKi (D(4) dopamine receptor [1]): 7.37 | Ki [5]: 4290 nM | pKi [5]: 5.37 | Ki [6]: 806 nM | pKi [6]: 6.1 | Ki [3]: 6.82 µM | pKi [3]: 5.2 | Ki [7]: 5260 nM | pKi [7]: 5.35 | Ki [9]: 1860 nM | pKi [9]: 5.75 | Ki [8]: 376 nM | pKi [8]: 6.44 | Ratio [2]: 1.1

CCc1nc(CCNCc2cc(=O)c3cc(F)ccc3[nH]2)cs1
Ki (D(4) dopamine receptor [1]): 1600 nM | Ki (D(2) dopamine receptor): > 10 µM | Ki (D(3) dopamine receptor): > 10 µM

CCc1nccn1CCCNCc1cc(=O)c2cc(C)ccc2[nH]1
Ki (D(4) dopamine receptor [1]): > 10000 nM | Ki (D(2) dopamine receptor): > 10 µM | Ki (D(3) dopamine receptor): > 10 µM

Cc1ccc2[nH]c(CNCc3csc(-c4ncccn4)n3)cc(=O)c2c1
Ki (D(4) dopamine receptor [1]): > 10000 nM | Ki (D(2) dopamine receptor): > 10 µM | Ki (D(3) dopamine receptor): > 10 µM

O=c1cc(CNCCc2csc(-c3ncccn3)n2)[nH]c2ccc(F)cc12
Ki (D(4) dopamine receptor [1]): 1800 nM | Ki (D(2) dopamine receptor): > 10 µM | Ki (D(3) dopamine receptor): > 10 µM

CCc1cc(Cl)c(OC)c(C(=O)NC[C@@H]2CCCN2CC)c1O
Activity [10]: 1640 fmol/mg
